How the values were obtained:
CDK8/Cyclin C = CDK8/Cyclin C (Homo sapiens, UniProt P49336); experiment: Inhibition of CDK8/Cyclin-C (unknown origin) in presence of [gamma33P]ATP by radiometric method; assay type: protein-complex assay
[1] = biological target: Cyclin-C/Cyclin-dependent kinase 19 (Homo sapiens, UniProt Q9BWU1); experiment: Inhibition of CDK19/Cyclin-C (unknown origin) in presence of [gamma33P]ATP by radiometric method; assay type: protein-complex assay

Chains of the proteins cited; added tags and fusions are not shown. Lines headed by an entry give the natural chain unless they say otherwise; changes in a name come on top.
UniProt P49336: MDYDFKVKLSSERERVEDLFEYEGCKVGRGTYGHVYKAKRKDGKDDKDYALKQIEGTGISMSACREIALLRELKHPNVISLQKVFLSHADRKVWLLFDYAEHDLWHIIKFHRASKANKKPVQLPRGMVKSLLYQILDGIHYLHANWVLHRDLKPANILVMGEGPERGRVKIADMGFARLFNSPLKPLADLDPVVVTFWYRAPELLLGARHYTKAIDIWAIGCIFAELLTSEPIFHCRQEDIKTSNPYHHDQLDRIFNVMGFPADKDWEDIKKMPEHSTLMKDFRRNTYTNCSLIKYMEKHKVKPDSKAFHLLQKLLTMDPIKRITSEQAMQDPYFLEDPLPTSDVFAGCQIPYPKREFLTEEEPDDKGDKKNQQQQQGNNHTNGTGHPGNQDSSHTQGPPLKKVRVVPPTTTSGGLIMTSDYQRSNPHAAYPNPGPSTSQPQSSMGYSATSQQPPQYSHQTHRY
UniProt Q9BWU1: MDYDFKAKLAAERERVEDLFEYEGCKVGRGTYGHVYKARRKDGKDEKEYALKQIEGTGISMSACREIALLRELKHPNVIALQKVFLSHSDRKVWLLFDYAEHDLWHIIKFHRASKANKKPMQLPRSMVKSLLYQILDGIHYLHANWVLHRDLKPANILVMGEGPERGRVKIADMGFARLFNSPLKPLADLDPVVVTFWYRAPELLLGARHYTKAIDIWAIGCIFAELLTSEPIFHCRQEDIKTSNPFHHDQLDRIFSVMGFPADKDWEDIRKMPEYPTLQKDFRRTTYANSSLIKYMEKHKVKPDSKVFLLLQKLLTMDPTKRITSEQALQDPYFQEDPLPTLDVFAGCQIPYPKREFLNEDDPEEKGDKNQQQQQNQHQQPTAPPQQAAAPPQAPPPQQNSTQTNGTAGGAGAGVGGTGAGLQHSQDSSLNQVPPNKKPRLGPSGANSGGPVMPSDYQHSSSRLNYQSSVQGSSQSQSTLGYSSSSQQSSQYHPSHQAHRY

- IC50 (CDK8/Cyclin C): 24 to 50 nM
- IC50 [1]: 4.2 nM
Compound: CN1CCN(C(=O)c2ccc3cc(CCNc4ncnc5ccc(C#N)cc45)ccc3c2)CC1 [SENEXIN B]
